# Measurements taken from PubChem BioAssay AID652039 (The Scripps Research Institute Molecular Screening Center, 2013).
# Protein sequences, listed by entry. Tags and fused reporters are not part of them.
# UniProt P49862, whole entry: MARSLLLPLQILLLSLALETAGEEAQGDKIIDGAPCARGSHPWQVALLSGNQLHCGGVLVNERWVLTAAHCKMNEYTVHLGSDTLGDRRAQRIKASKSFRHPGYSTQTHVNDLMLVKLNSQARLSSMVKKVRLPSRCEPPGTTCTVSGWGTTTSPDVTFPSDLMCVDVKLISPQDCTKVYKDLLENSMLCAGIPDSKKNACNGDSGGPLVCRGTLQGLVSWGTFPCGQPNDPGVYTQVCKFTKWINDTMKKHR
# Only a part is listed here, and it is no random draw. Activity calls are given as the source filed them.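 The calls were made as follows: active = activation above the mean of all tested compounds plus 3 SD, computed per campaign excluding outliers beyond control limits (cut at about 13% in these data); inactive = the rest.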
# Molecular target: Kallikrein-7 (Homo sapiens) (UniProt P49862)
# Experiment: activation of human kallikrein-7 proenzyme – biochemical, fluorescence intensity, primary screen (AID 652039)
# Conditions: purified proKLK7, EDANS-DABCYL substrate fluorescence; at 7 µM; hits give high values; 100% is mature enzyme control, 0% vehicle
row,Structure (SMILES),activation
1,Cn1c(=O)[nH]cc(N(CCCl)CCCl)c1=O,inactive: 0.06%
2,CN(C)c1ccc(C(=O)NCC2(N3CCCCC3)CCCCC2)cc1,inactive: -0.03%
3,O=C(NCC1(N2CCCCC2)CCCCC1)c1ccco1,inactive: 0.2%
4,CC(C)(C)n1nnnc1C(c1ccnc2ccccc12)N1CCC(n2c(=O)[nH]c3ccccc32)CC1 (stereo not given),inactive: 0.38%
5,CCN1CCC(Nc2cccc(F)c2)CC1,inactive: 0.21%
6,COc1ccc(C(c2nnnn2C2CCCCC2)N2CCC(n3c(=O)[nH]c4ccccc43)CC2)cc1 (stereo not given),inactive: 0.83%
7,Cc1ccccc1NC1(C#N)CCN(Cc2ccccc2)CC1,inactive: 0.14%
8,Fc1ccccc1NC1CCN(Cc2ccccc2)CC1,inactive: -0.83%
9,Cc1ccc(C(=O)NCC2(N3CCCCC3)CCCCC2)o1,inactive: -0.42%
10,Cc1ccc(NC2(C#N)CCN(Cc3ccccc3)CC2)cc1,inactive: 0.18%
11,CCC(c1nnnn1C1CCCCC1)N1CCC(n2c(=O)[nH]c3ccccc32)CC1 (stereo not given),inactive: 0.98%
12,CC(=O)N(c1ccccc1)C1CCNCC1,inactive: 0.08%
13,COc1cccc(C(c2nnnn2C2CCCCC2)N2CCC(n3c(=O)[nH]c4ccccc43)CC2)c1OC (stereo not given),inactive: 0.24%
14,O=c1[nH]c2ccccc2n1C1CCN(C(c2ccnc3ccccc23)c2nnnn2C2CCCCC2)CC1 (stereo not given),inactive: 0.1%
15,COc1cc(OC)cc(C(=O)NCC2(N3CCCCC3)CCCCC2)c1,inactive: -0.61%
16,CN1CCC(Nc2ccc(Cl)cc2)CC1,inactive: -0.12%
17,COc1cccc(C(=O)N(c2cc(C)cc(C)c2)C2CCN(C(=O)OC(C)(C)C)CC2)c1,inactive: -0.15%
18,COc1cccc(C(c2nnnn2C2CCCC2)N2CCC(n3c(=O)[nH]c4ccccc43)CC2)c1OC (stereo not given),inactive: 0.79%
19,COc1cc(OC)cc(C(=O)NCC2(N3CCOCC3)CCCCC2)c1,inactive: -0.08%
20,CCC(CO)(C(=O)OC1CN2CCC1CC2)c1ccccc1 (stereo not given),inactive: -0.03%
21,NN(c1ccccc1)C1CCN(CCc2ccccc2)CC1,inactive: 0.15%
22,O=C(O)C1(Nc2ccccc2)CCN(Cc2ccccc2)CC1,inactive: -0.36%

row,Structure (SMILES),activation
1,CC(C)(C)OC(=O)N1CCC(Nc2ccccc2)CC1,inactive: -0.02%
2,CCCOc1ccc(C(=O)NCC2(N(C)C)CCCCC2)cc1,inactive: 0.57%
3,O=c1[nH]c2ccccc2n1C1CCN(C(c2cc3ccccc3o2)c2nnnn2C2CCCC2)CC1 (stereo not given),inactive: 0.69%
4,CN1CCC(Nc2ccc(F)c(Cl)c2)CC1,inactive: -0.28%
5,CCOc1ncccc1C(=O)NCC1(N2CCOCC2)CCCCC1,inactive: 0.66%
6,O=c1[nH]c2ccccc2n1C1CCN(C(c2cccs2)c2nnnn2C2CCCC2)CC1 (stereo not given),inactive: -0.16%
7,O=C(OC1CN2CCC1CC2)C1c2ccccc2C=Cc2ccccc21 (stereo not given),inactive: -0.22%
8,CCCCn1nnnc1C(c1cccc(OC)c1OC)N1CCC(n2c(=O)[nH]c3ccccc32)CC1 (stereo not given),inactive: 0.81%
9,COc1cccc(C(c2nnnn2C(C)(C)C)N2CCC(n3c(=O)[nH]c4ccccc43)CC2)c1OC (stereo not given),inactive: -0.38%
10,CCOC(=O)N1CCC(Nc2ccc(C)cc2)CC1,inactive: -0.25%
11,N/C(=N\O)c1c(N)no[n+]1[O-],inactive: 0.03%
12,NC(=O)C1(Nc2ccccc2)CCN(Cc2ccccc2)CC1,inactive: 0.08%
13,O=c1[nH]c2ccccc2n1C1CCN(C(c2cccs2)c2nnnn2C2CCCCC2)CC1 (stereo not given),inactive: 0.2%
14,O=c1[nH]c2ccccc2n1C1CCN(C(c2ccnc3ccccc23)c2nnnn2C2CCCC2)CC1 (stereo not given),inactive: 0.2%
15,COc1ccc(C(=O)NCC2(N3CCOCC3)CCCCC2)cc1OC,inactive: 0.63%
16,COc1cc(C(=O)NCC2(N3CCOCC3)CCCCC2)cc(OC)c1C,inactive: -0.62%
17,CCCCn1nnnc1C(c1ccccc1)N1CCC(n2c(=O)[nH]c3ccccc32)CC1 (stereo not given),inactive: 0.03%
18,O=C(NCC1(N2CCOCC2)CCCCC1)c1cc(Br)ccc1Cl,inactive: 0.3%
19,CC(C)(C)n1nnnc1C(c1cccc2ccccc12)N1CCC(n2c(=O)[nH]c3ccccc32)CC1 (stereo not given),inactive: -0.08%
20,CN(C)C1(CNC(=O)c2cccc(C#N)c2)CCCCC1,inactive: -0.11%
21,Cc1cc(N(CCCl)CCCl)ccc1C=O,inactive: -0.17%
22,O=c1[nH]c2ccccc2n1C1CCN(C(c2ccccc2)c2nnnn2C2CCCC2)CC1 (stereo not given),inactive: 0.94%

row,Structure (SMILES),activation
1,CCCN1CCC(Nc2cc(OC)cc(OC)c2)CC1,inactive: 0.31%
2,c1ccc(CN2CCC(Nc3ccccc3)CC2)cc1,inactive: 0.27%
3,C/C(N)=N\P(=O)(Oc1ccccc1)Oc1ccccc1,inactive: -0.05%
4,N#Cc1ccc(C(=O)NCC2(N3CCCCC3)CCCCC2)cc1,inactive: -0.33%
5,CC(C)(C)OC(=O)N1CCC(N(C(=O)c2ccccc2)c2ccc(Cl)cc2)CC1,inactive: 1.01%
6,O=C(NCC1(N2CCOCC2)CCCCC1)c1cc(=O)[nH]c2ccccc12,inactive: 0.75%
7,COc1cc(C(=O)NCC2(N3CCCCC3)CCCCC2)ccc1OC(F)F,inactive: -0.3%
8,CCCCn1nnnc1C(c1cccc2ccccc12)N1CCC(n2c(=O)[nH]c3ccccc32)CC1 (stereo not given),inactive: 0.03%
9,CC(C)c1ccc(C(=O)NCC2(N3CCOCC3)CCCCC2)cc1,inactive: -0.18%
10,COc1ccc(NC2CCN(C(=O)OC(C)(C)C)CC2)cc1,inactive: -0.13%
11,CN1CCN(CCOC(=O)C(O)(c2ccccc2)c2ccccc2)CC1,inactive: -0.81%
12,O=C(NCC1(N2CCCCC2)CCCCC1)c1cccc(C(F)(F)F)c1,inactive: 0.07%
13,N#CC1(Nc2ccccc2)CCN(CCc2ccccc2)CC1,inactive: 0.2%
14,O=c1[nH]c2ccccc2n1C1CCN(C(c2ccccc2OC(F)(F)F)c2nnnn2C2CCCC2)CC1 (stereo not given),inactive: 0.43%
15,CCN1CCC(Nc2ccc(Cl)cc2)CC1,inactive: -0.38%
16,CSc1ccc(C(=O)NCC2(N3CCOCC3)CCCCC2)cc1,inactive: 0.1%
17,O=C(NCC1(N2CCCCC2)CCCCC1)c1cccc([N+](=O)[O-])c1,inactive: -0.14%
18,O=C(NCC1(N2CCCCC2)CCCCC1)c1ccc(OC(F)F)cc1,inactive: -0.07%
19,CC(C)(C)n1nnnc1C(c1ccccc1OC(F)(F)F)N1CCC(n2c(=O)[nH]c3ccccc32)CC1 (stereo not given),inactive: -0.01%
20,COc1ccc(C(c2nnnn2C2CCCC2)N2CCC(n3c(=O)[nH]c4ccccc43)CC2)cc1 (stereo not given),inactive: 0.37%
21,CCCOc1ccc(C(=O)NCC2(N(C)C)CCCCC2)cc1OC,inactive: -0.56%
22,Cc1ccc(C(=O)NCC2(N(C)C)CCCCC2)o1,inactive: 0.15%

row,Structure (SMILES),activation
1,O=C(NCC1(N2CCCCC2)CCCCC1)c1cncc(Br)c1,inactive: 0.73%
2,CN1CCC(Nc2cccc(F)c2)CC1,inactive: 0.5%
3,CCC(c1nnnn1C(C)(C)C)N1CCC(n2c(=O)[nH]c3ccccc32)CC1 (stereo not given),inactive: -0.04%
4,O=C(NCC1(N2CCOCC2)CCCCC1)c1cc(F)c(F)cc1Cl,inactive: -0.32%
5,COc1cc(OC)c(C(=O)NCC2(N(C)C)CCCCC2)cc1OC,inactive: -0.44%
6,CCCCn1nnnc1C(c1ccnc2ccccc12)N1CCC(n2c(=O)[nH]c3ccccc32)CC1 (stereo not given),inactive: -0.01%
7,CC(C)c1ccc(NC2CCN(C(=O)OC(C)(C)C)CC2)cc1,inactive: 0.22%
8,CN(C)c1cccc(C(=O)NCC2(N3CCCCC3)CCCCC2)c1,inactive: 2.43%
9,COC(=O)C1(Nc2ccccc2)CCN(Cc2ccccc2)CC1,inactive: 0.68%
10,COc1ccc(CN(CCCl)CCCl)cc1Cl,inactive: 0.3%
11,COc1ccc(Cl)cc1C(=O)NCC1(N2CCOCC2)CCCCC1,inactive: 0.24%
12,O=c1[nH]c2ccccc2n1C1CCN(C(c2cc3ccccc3o2)c2nnnn2C2CCCCC2)CC1 (stereo not given),inactive: -0.78%
13,O=C(OC1CN2CCC1CC2)C1c2ccccc2Oc2ccccc21 (stereo not given),inactive: 0.37%
14,N#CC1(Nc2ccccc2)CCN(Cc2ccccc2)CC1,inactive: 0.42%
15,O=C(NCC1(N2CCCCC2)CCCCC1)c1ccc(Cl)s1,inactive: 0.65%
16,CCCCn1nnnc1C(c1ccc(OC)cc1)N1CCC(n2c(=O)[nH]c3ccccc32)CC1 (stereo not given),inactive: 1.47%
17,CCOC(=O)N1CCC(Nc2ccc(OC)cc2)CC1,inactive: -0.32%
18,Cc1cc(C)cc(N(C(=O)c2ccccc2)C2CCN(C(=O)OC(C)(C)C)CC2)c1,inactive: 0.38%
19,O=c1[nH]c2ccccc2n1C1CCN(C(c2ccccc2OC(F)(F)F)c2nnnn2C2CCCCC2)CC1 (stereo not given),inactive: 0.04%
20,O=C(NCC1(N2CCCCC2)CCCCC1)c1ccc(Cl)nc1,inactive: 0.51%
21,O=C(NCC1(N2CCOCC2)CCCCC1)c1cc2ccccc2o1,inactive: 0.09%
22,Cc1cccc(NC2(C#N)CCN(Cc3ccccc3)CC2)c1,inactive: 0.08%

row,Structure (SMILES),activation
1,CSc1ccccc1C(=O)NCC1(N2CCCCC2)CCCCC1,inactive: -0.57%
2,CCC(c1nnnn1C1CCCC1)N1CCC(n2c(=O)[nH]c3ccccc32)CC1 (stereo not given),inactive: -0.41%
3,CC(C)(C)OC(=O)N1CCC(N(C(=O)c2ccccc2)c2ccc(F)cc2)CC1,inactive: -0.31%
4,COc1ccc(C(=O)NCC2(N3CCCCC3)CCCCC2)c(OC)c1OC,inactive: -0.01%
5,COc1ccc(C(=O)NCC2(N3CCCCC3)CCCCC2)cc1,inactive: -0.5%
6,CCCCn1nnnc1C(c1cccs1)N1CCC(n2c(=O)[nH]c3ccccc32)CC1 (stereo not given),inactive: -0.13%
7,O=C(NCC1(N2CCCCC2)CCCCC1)c1cccs1,inactive: 0.26%
8,CCCCn1nnnc1C(CC)N1CCC(n2c(=O)[nH]c3ccccc32)CC1 (stereo not given),inactive: 0.91%
9,O=C(NCC1(N2CCCCC2)CCCCC1)c1ccc(=O)[nH]c1,inactive: -0.14%
10,COc1cc(C(=O)NCC2(N(C)C)CCCCC2)ccc1OC(F)F,inactive: 0.29%
11,CCOC(=O)N1CCC(Nc2cccc(C)c2)CC1,inactive: -0.42%
12,O=c1[nH]c2ccccc2n1C1CCN(C(c2cccc3ccccc23)c2nnnn2C2CCCC2)CC1 (stereo not given),inactive: -0.3%
13,O=c1[nH]c2ccccc2n1C1CCN(C(c2ccccc2)c2nnnn2C2CCCCC2)CC1 (stereo not given),inactive: -0.08%
14,CCOC(=O)N1CCC(Nc2ccc(F)cc2)CC1,inactive: -0.31%
15,COc1ccc(NC2CCN(CCc3ccccc3)CC2)c(OC)c1,inactive: -0.89%
16,O=C(NCC1(N2CCCCC2)CCCCC1)c1ccc(F)cc1,inactive: -0.14%
17,CCCCOc1ccc(C(=O)NCC2(N3CCOCC3)CCCCC2)cc1,inactive: -0.56%
18,O=P1(N(CCCl)CCCl)SCCCS1,inactive: 0.33%
19,CCCCn1nnnc1C(c1cc2ccccc2o1)N1CCC(n2c(=O)[nH]c3ccccc32)CC1 (stereo not given),inactive: 0.14%
20,O=C1CCN(Cc2ccccc2)CC1,inactive: 0.64%
21,CC(C)(C)n1nnnc1C(c1ccccc1)N1CCC(n2c(=O)[nH]c3ccccc32)CC1 (stereo not given),inactive: 0.27%
22,CCOc1ccc(C)cc1CN(CCCl)CCCl,inactive: -0.2%
